Source: publication PMC9386001, “Identification of naturally occurring inhibitors in Xian-Ling-Gu-Bao capsule against the glucuronidation of estrogens” (Frontiers in Pharmacology, 2022)

Legend:
UGT2B7 = target: T1, UGT2B7 (Homo sapiens, UniProt P16662); experiment: Inhibition of UGT2B7 (zidovudine-N-glucuronidation)
T1 sequence (P16662 24-529): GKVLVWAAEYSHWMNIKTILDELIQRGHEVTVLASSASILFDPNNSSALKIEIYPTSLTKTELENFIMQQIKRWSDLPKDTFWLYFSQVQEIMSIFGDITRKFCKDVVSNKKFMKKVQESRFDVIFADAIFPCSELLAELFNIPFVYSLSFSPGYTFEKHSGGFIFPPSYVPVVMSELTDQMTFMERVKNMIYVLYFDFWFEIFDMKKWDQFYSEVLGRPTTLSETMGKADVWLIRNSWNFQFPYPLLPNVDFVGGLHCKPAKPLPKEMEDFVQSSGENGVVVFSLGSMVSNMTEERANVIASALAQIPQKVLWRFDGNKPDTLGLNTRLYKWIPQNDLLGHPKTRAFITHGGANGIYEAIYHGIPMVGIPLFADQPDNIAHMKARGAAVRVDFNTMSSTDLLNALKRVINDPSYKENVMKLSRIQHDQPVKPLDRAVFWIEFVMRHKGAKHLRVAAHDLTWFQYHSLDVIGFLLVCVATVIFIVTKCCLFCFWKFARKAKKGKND
Experimental: (§1) The final volume of solvent in incubations was 1%. In addition, emodin, atazanavir, and diclofenac were considered as positive controls for UGT1A10, UGT1A1, and UGT2B7, respectively.
(§2) Competitive inhibition, non-competitive inhibition, and mixed-type inhibition models were used to estimate the Ki values by nonlinear regression based on Eqs 6–8, respectively.

UGT1A1 = target: T2, UGT1A1 (Homo sapiens, UniProt P22309); experiment: Inhibition of UGT1A1 (β-estradiol-3-O-glucuronidation)
T2 sequence (P22309 26-533): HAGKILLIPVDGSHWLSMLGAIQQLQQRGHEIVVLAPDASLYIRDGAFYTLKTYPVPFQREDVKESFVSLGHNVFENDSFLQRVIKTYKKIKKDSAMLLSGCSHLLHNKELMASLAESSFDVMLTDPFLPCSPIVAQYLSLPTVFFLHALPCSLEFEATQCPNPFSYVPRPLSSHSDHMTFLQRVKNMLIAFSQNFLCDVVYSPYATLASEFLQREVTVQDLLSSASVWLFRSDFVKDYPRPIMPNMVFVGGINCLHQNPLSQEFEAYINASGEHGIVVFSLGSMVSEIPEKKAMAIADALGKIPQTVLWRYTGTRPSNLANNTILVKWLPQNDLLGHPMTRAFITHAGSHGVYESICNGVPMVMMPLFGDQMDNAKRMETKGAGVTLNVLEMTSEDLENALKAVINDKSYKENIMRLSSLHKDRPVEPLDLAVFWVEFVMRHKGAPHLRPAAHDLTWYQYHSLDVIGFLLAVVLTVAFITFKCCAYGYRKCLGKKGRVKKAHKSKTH
Experimental: as §1, §2

UGT1A10 = target: T3, UGT1A10 (Homo sapiens, UniProt Q9HAW8); experiment: Inhibition of UGT1A10 (4-methylumbelliferone-O-glucuronidation)
T3 sequence (Q9HAW8 26-530): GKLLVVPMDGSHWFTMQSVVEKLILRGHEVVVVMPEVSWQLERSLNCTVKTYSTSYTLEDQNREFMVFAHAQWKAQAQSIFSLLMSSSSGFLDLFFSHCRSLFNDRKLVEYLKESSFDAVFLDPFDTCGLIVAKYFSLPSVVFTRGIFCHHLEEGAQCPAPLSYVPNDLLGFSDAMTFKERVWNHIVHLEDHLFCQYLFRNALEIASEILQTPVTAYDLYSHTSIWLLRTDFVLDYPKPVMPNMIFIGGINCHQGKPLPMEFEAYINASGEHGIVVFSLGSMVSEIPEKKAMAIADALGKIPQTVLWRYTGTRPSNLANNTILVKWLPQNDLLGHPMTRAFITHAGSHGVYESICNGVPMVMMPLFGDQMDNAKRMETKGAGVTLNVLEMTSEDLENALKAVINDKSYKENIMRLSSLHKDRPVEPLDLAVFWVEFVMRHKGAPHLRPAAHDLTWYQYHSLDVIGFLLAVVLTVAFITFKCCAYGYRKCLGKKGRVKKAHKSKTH
Experimental: as §1, §2

icariside II was tested, and the “residual activity (Figures 3G–I, UGT2B7)” value (UGT2B7; 10 μM, % of negative control) was 46.34%, the IC50 (UGT2B7; UGT2B7, substrate AZT) was 10200 ± 1620 nM and the Ki (UGT2B7; UGT2B7, substrate AZT) was 2020 ± 260 nM. The “remaining activity of UGT1A1” value (UGT1A1; 10 μM, % of negative control) was 5.80%, the IC50 (UGT1A1; UGT1A1, substrate E2) was 2470 ± 290 nM and the Ki (UGT1A1; UGT1A1, substrate E2) was 1180 ± 210 nM. The “residual activity of UGT1A10” value (UGT1A10; 10 μM, % of negative control) was 34.22%, the IC50 (UGT1A10; UGT1A10, substrate 4-MU) was 4740 ± 570 nM and the Ki (UGT1A10; UGT1A10, substrate 4-MU) was 3260 ± 420 nM.
